## Antibody variant affinities, Ab-14 light chain, assay B

Reference: Li et al. 2023, doi:10.1038/s41467-023-39022-2. File: FLAb, binding data.

Antigen: PDVDLGDISGINAS, a 14-residue peptide of the SARS-CoV-2 spike HR2 region.

Each scFv is VH, a 15-residue (Gly4Ser)3 linker, VL, as in the parent Ab-14, and differs from it in the CDRs of the light chain only.
VH: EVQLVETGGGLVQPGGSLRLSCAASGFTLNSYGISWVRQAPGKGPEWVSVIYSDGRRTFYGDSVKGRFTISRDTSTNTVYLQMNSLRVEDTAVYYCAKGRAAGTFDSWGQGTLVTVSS
VL: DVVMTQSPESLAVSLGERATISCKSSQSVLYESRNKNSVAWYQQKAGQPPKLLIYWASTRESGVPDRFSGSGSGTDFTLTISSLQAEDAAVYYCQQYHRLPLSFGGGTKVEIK

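The starting antibody came from a phage panning campaign against this peptide. These sequences belong to a second round, designed from the earlier measurements on random variants of the parent. Group labels follow the data file (Ctrl: baseline library sampled from a position-specific scoring matrix, with some repeated check sequences; Rand: our label for a block that the file lists under HC and that is probably the random mutants of the ten best first-round binders; En: ensemble of fine-tuned language models; GP: Gaussian process model; HC: hill climbing; Gen: genetic algorithm; Gibbs: Gibbs sampling; a sequence that several methods proposed may carry one label only). The assay is AlphaSeq: two haploid yeast populations carry antibody and antigen on their surface. The frequency of each diploid, read from paired DNA barcodes, reflects how well the two displayed proteins bind. Scores were corrected for input abundance and mapped to Kd with protein pairs of known affinity run in the same pool. Each pool was mated in six replicate cultures.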

Variants are written as CDR1, CDR2 and CDR3 of the light chain (limits as in the source). Parent: KSSQSVLYESRNKNSVA, WASTRES, QQYHRLPLS.
Numbers give log10(Kd / nM), so 0 is 1 nM and 3 is 1 µM. Smaller is tighter.
Averages over replicates are reported, and they cover detected replicates only.
"nd" means that the variant was in the library but no mating with the target was seen in any replicate; the authors take this as a sign of poor binding, and no number exists.
A sequence measured in both rounds can read differently, since the two assays cover different ranges.
As a blank, each scFv also met three strains without target: over all light chain designs, 4% of these pairings were detected, typically at 2.64 and seldom below 1.59.
The parent sequence was in this pool as ten entries: three were never detected, three once, and four in most replicates, with averages from 0.34 to 2.37.
In the paper, a design with two or fewer of six values counts as a poor binder.

Result -0.19 (6 of 6 replicates), variant IVSQLMLWGLHAKNSIA / EAQTRLN / QQYDRLPLE [En_Gen].
Result 0.09 (6 of 6 replicates), variant HVELGVGGVQAYGDSVA / HASQRQA / QQYYQLPLT [En_Gibbs].
Result nd (0 of 6 replicates), variant KSSQSKCYESRNKNSVA / WASTRES / QQYHRLPLS [Ctrl].
Result 1.18 (6 of 6 replicates), variant YMSMYTDMQQNIQCGVA / DATTRND / QQYQRLPLS [En_Gibbs].
Result -0.03 (6 of 6 replicates), variant HSSQSVLDESRNKNSVA / DASTRES / QQYHRLPLS [GP_HC].
Result 1.28 (4 of 6 replicates), variant KWSCSQLYDSQNKNSVA / WASTREM / QQYHRLPLS [GP_Gibbs].
Result 0.46 (6 of 6 replicates), variant KISGYLNKESKIKNNVA / EMVNRES / QQYDRLPLS [En_HC].
Result 0.17 (6 of 6 replicates), variant KLSQSWLYESRNKNSVA / NASLRES / QQYHRLPLS [GP_Gen].
Result nd (0 of 6 replicates), variant TLYGLSNSMSINKNSVA / EMTTREK / QQYDRLPLA [En_Gen].
Result 0.50 (6 of 6 replicates), variant KLSCGVDYWSRNKNSVA / GASTRES / QQYHRLPLS [GP_Gibbs].
Result 1.73 (3 of 6 replicates), variant SLMQVGGYESNVHNSIA / DLRTRES / QQYHRLPLS [En_HC].
Result -0.20 (6 of 6 replicates), variant KLSQSVLYESRNKNSVA / NASTRER / QQYHRLPLS [GP_Gen].
Result 1.90 (1 of 6 replicates), variant QLDQAYRVGDLWTQSIA / HGSMRVQ / QCYNRLPLS [En_Gibbs].
Result nd (0 of 6 replicates), variant TISQMTSAFSMSINNVA / EVSTREE / QQYDRLPLA [En_Gen].
Result 0.58 (6 of 6 replicates), variant KFGQGVHVESIMHNSIA / QTSTREE / QQYDRLPLS [En_HC].
Result -0.36 (6 of 6 replicates), variant KLSQSVLYESRNKNSVA / NASQREM / QQYHRLPLS [GP_Gen].
Result 1.14 (6 of 6 replicates), variant MLLQSTMYGERNRNNVA / HASTRED / QQYHRLPLI [En_HC].
Result 0.66 (6 of 6 replicates), variant KLSQSVQYESRNKNSVA / WASTRES / QQYHSLPLS [Ctrl].
Result 0.98 (6 of 6 replicates), variant KISQMVRVGSTVSNSIA / EEQTRAK / QQYHRLPLA [En_Gen].
Result -0.28 (6 of 6 replicates), variant KLSLSVELESRLKNSVA / HASTREE / QQYHRLPLS [GP_Gibbs].
Result 0.92 (6 of 6 replicates), variant KISQMVRVGSTLSNSIA / EEVTRAK / QQYHRLPLA [En_Gen].
Result 0.05 (6 of 6 replicates), variant KLSQVTEYEMHNKNNVA / DLTTRGS / QDYHRLPLS [En_HC].
Result nd (0 of 6 replicates), variant KDSISYLYESRNKNSTA / EASTRES / HQYHRLPLV [Rand].
Result 0.05 (6 of 6 replicates), variant KSSQSVLGESRNKNSVA / NASTRES / QQYHRLPLS [Ctrl].
Result -0.05 (6 of 6 replicates), variant KVSQSFLYEERNKNSVA / NASTRES / QQYHRLPLS [GP_Gen].
Result -0.27 (6 of 6 replicates), variant KLRQQTLYETRNKNSVA / DASTREE / QQYHRLPLS [GP_HC].
Result 0.02 (6 of 6 replicates), variant KITGMWTFENRNRNNIA / EESTRED / QSYHRLPLS [En_HC].
Result -0.05 (6 of 6 replicates), variant MISDLTMQGSLNKNSVA / DLSTRGS / QQYHRLPLS [En_HC].
Result -0.42 (6 of 6 replicates), variant KFSQSWLMESRNKNSVA / EASTRQS / QQYHRLPLS [GP_HC].
Result 0.27 (6 of 6 replicates), variant KLLQSVLYESRDKNSVA / HASTRED / QQYHRLPLS [GP_HC].
Result 2.35 (5 of 6 replicates), variant KLSSFHQVESINKSNVA / EMVTRES / QQYDRLPLS [En_HC].
Result 0.27 (6 of 6 replicates), variant KLMPSHLYESRNSNSVA / NASYREQ / QQYHRLPLS [GP_Gibbs].
Result 0.12 (6 of 6 replicates), variant KLPHLSFVHDREKNNVA / DLNRKAA / QQYDRLPLT [En_Gibbs].
Result 1.39 (5 of 6 replicates), variant SLELFSLSGDLPWNAVA / DEVVKLA / QQYFRLPLH [En_Gibbs].
Result -0.23 (6 of 6 replicates), variant KVPQSVLYESRNKNAVA / QASTRES / QDYHRLPLS [GP_Gibbs].
Result 0.42 (6 of 6 replicates), variant KYSQSWLYESRNKNSVA / GASAREV / QQYHRLPLS [GP_HC].
Result 0.77 (6 of 6 replicates), variant KLWQSVLYESRNKNSVA / EASTRES / QQYHRLPLS [GP_Gen].
Result 2.95 (2 of 6 replicates), variant KLQWSHLYGSRMKNSVA / HASQRES / QCYHRLPLS [GP_Gibbs].
Result nd (0 of 6 replicates), variant KLMQSVCMESRNKNSVA / NASKRES / QQYHRLPLS [GP_Gibbs].
Result -0.40 (6 of 6 replicates), variant KAQQGELYESRDWNSVA / DASKRLS / QQYHRLPLS [GP_Gibbs].
Result -0.23 (6 of 6 replicates), variant KIEQGVLYESRNKNSVA / GASVRES / QQYHRLPLS [GP_HC].
Result 0.99 (4 of 6 replicates), variant YSSDLVLYESRNKNSVA / KASTRES / QQYHRLPLS [Ctrl].
Result 2.01 (4 of 6 replicates), variant KSSQSVDYELRNKNSVA / WASTRES / YQYHRLPLS [Ctrl].
Result -0.39 (6 of 6 replicates), variant KLSMSVLYESRNKNSVA / DASTRES / QQYHRLPLS [GP_Gen].
Result nd (0 of 6 replicates), variant KASQSVLYETRNKHSVA / WASTRES / QQYHRLPLP [Ctrl].
Result 1.08 (4 of 6 replicates), variant TLYGLSMSMSKNKNNVA / EMSTREN / QQYDRLPLI [En_Gen].
Result 0.46 (6 of 6 replicates), variant SLVQEKSVGDKNAGNIA / AGNQLSV / QQYNRLPLS [En_Gibbs].
Result 1.02 (6 of 6 replicates), variant MMSQVSGQGTRHRNNVA / QTSTREP / QQYDRLPLI [En_Gen].
Result 0.60 (6 of 6 replicates), variant KLGQSTAMTSRMKNNVA / DLNMRER / QQYHRLPLS [En_HC].
Result 2.07 (1 of 6 replicates), variant KSSQSLLYESRNKNSVA / WASTRES / QQYHGLPLS [Ctrl].
Result 0.29 (6 of 6 replicates), variant KLSQSNLYESRNKNSVA / NASTREW / QQYHRLPLS [GP_Gen].

For reference, 4 entries of the list once more:

CDR-L1	CDR-L2	CDR-L3	group	mean log10 Kd (nM)	replicates with signal
TLYGLSMSMSKNKNNVA	EMSTREN	QQYDRLPLI	En_Gen	1.08	4/6
KLSQVTEYEMHNKNNVA	DLTTRGS	QDYHRLPLS	En_HC	0.05	6/6
KLSQSVLYESRNKNSVA	NASTRER	QQYHRLPLS	GP_Gen	-0.20	6/6
KLPHLSFVHDREKNNVA	DLNRKAA	QQYDRLPLT	En_Gibbs	0.12	6/6